Assay results taken from patent publication US6569897B1, “Alkenyldiarylmethane non-nucleoside HIV-1 reverse transcriptase inhibitors” (priority 1998, dated 2003).

Key:
HIV-1 proviral DNA = assay: PCR-based analysis of proviral DNA formation; type: cell-based
[1] = system: latently HIV-1 infected U1 cells; assay: Virus production from latently HIV-1 infected U1 cells induced with TNF-α; type: cell-based

COC(=O)CCCC=C(c1cc(Cl)c(OC)c(C(=O)OC)c1)c1cc(Cl)c(OC)c(C(=O)OC)c1 [Compound 22, Methyl 3′,3″-Dichloro-4′,4″-dimethoxy-5,5″-bis(methoxycarbonyl)-6,6-diphenylhexenoate]
formation of proviral DNA (HIV-1 proviral DNA): prevented formation of proviral DNA
virus production from U1 cells [1]: no effect on virus production
